Only a part is listed here, and it is no random draw. Active and inactive are the calls of the source.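 How the source made its calls: active means mean z-score across replicates of 1.96 or higher in either the MELAS or the Rieske mutant cell line; inactive means the rest.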
experiment: MELAS cybrid and Rieske KO viability enhancers – cell-based, MELAS cybrids, Rieske KO mouse fibroblasts, CellTiter-Glo, primary screen (AID 1508586); conditions: MELAS cybrid survival, low glucose, CellTiter-Glo 48 h; active compounds read high;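 further: test concentration not given here; z relative to plate mean and SD of compound and empty wells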

Row | Structure (SMILES) | z-score
1 | C/C1=C2N=C(/C=C3N=C(/C(C)=C4\[N-][C@@](C)([C@@H]5N=C1[C@](C)(CCC(=O)NC[C@@H](C)OP(=O)([O-])O[C@H]1[C@@H](O)[C@@H](n6cnc7cc(C)c(C)cc76)O[C@@H]1CO)[C@H]5CC(N)=O)[C@@](C)(CC(N)=O)[C@@H]4CCC(N)=O)[C@@](C)(CC(N)=O)[C@@H]\3CCC(N)=O)C(C)(C)[C@@H]/2CCC(N)=O.[C-]#N.[Co+3] | inactive: 0.175
2 | CC1=C2[N-][C@@H](C(CC(N)=O)[C@@]2(C)CCC(=O)NCC(C)OP(=O)([O-])OC2C(CO)OC(n3cnc4cc(C)c(C)cc43)C2O)[C@]2(C)N=C(C(C)=C3N=C(C=C4N=C1C(CCC(N)=O)C4(C)C)C(CCC(N)=O)[C@]3(C)CC(N)=O)C(CCC(N)=O)[C@]2(C)CC(N)=O.[C-]#N.[Co+3] (some centres not stated) | inactive: -0.368

Source: PubChem BioAssay AID1508586 (ICCB-Longwood Screening Facility, Harvard Medical School, 2020)
